From patent US9931347B2, “Pharmaceutical compound” (IOmet Pharma Ltd., priority 2013, dated 2018)

Protein sequences, listed by entry. Tags and fused reporters are not part of them.
UniProt P48775, whole entry: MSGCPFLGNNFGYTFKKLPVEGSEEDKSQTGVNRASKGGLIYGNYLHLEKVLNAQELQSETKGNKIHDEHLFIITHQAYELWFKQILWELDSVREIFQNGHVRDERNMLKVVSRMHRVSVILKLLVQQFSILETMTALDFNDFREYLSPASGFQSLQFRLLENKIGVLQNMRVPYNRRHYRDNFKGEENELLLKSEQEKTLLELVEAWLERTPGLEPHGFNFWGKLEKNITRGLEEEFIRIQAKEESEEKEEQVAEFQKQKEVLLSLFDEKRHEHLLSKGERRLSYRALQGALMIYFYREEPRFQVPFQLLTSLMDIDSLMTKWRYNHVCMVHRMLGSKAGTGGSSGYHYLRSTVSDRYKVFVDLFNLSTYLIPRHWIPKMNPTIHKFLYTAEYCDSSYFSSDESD
UniProt P14902, whole entry: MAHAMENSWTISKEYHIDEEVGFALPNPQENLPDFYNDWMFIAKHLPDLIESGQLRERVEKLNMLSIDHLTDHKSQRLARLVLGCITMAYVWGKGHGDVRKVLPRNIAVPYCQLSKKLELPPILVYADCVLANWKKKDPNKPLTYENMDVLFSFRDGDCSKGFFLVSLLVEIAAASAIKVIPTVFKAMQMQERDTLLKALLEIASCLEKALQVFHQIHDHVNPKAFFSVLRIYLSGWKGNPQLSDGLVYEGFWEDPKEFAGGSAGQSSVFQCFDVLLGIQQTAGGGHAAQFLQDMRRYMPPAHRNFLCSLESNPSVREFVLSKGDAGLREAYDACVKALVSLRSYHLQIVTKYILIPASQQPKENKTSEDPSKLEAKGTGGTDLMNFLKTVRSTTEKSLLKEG

Experiments:
[1] = target: TDO (A172 human glioblastoma cells) (Homo sapiens, UniProt P48775); assay: A172 Kynurenine cell based assay; details: 500 μM L-tryptophan, 48 hours, kynurenine by Erhlich's reagent
[2] = target: IDO (SKOV3 human ovarian adenocarcinoma cells, IFN-γ induced) (Homo sapiens, UniProt P14902); assay: SKOV3 Kynurenine cell based assay; details: IDO induced by 500 ng/ml IFN-γ, 500 μM L-tryptophan, 48 hours

A172 Kynurenine cell based assay pIC50 [1]: + (+ = pIC50 4.00-4.99)
SKOV3 Kynurenine cell based assay pIC50 [2]: + (+ = pIC50 4.00-4.99)
SMILES: CS(=O)(=O)N1CCC(C2CNc3cc(F)ccc32)CC1 (centres unmarked)
